# Test results from patent US20250376468A1, “PYRAZOLO[1,5-a]PYRIDINE DERIVATIVES FOR TREATING TRPM3-MEDIATED DISORDERS” (Katholieke Universiteit Leuven, priority 2022, published 2025).
# Chains of the proteins cited; added tags and fusions are not shown. Residues count along the entry.
# UniProt J9SQF3, 1-1709 isoform 12: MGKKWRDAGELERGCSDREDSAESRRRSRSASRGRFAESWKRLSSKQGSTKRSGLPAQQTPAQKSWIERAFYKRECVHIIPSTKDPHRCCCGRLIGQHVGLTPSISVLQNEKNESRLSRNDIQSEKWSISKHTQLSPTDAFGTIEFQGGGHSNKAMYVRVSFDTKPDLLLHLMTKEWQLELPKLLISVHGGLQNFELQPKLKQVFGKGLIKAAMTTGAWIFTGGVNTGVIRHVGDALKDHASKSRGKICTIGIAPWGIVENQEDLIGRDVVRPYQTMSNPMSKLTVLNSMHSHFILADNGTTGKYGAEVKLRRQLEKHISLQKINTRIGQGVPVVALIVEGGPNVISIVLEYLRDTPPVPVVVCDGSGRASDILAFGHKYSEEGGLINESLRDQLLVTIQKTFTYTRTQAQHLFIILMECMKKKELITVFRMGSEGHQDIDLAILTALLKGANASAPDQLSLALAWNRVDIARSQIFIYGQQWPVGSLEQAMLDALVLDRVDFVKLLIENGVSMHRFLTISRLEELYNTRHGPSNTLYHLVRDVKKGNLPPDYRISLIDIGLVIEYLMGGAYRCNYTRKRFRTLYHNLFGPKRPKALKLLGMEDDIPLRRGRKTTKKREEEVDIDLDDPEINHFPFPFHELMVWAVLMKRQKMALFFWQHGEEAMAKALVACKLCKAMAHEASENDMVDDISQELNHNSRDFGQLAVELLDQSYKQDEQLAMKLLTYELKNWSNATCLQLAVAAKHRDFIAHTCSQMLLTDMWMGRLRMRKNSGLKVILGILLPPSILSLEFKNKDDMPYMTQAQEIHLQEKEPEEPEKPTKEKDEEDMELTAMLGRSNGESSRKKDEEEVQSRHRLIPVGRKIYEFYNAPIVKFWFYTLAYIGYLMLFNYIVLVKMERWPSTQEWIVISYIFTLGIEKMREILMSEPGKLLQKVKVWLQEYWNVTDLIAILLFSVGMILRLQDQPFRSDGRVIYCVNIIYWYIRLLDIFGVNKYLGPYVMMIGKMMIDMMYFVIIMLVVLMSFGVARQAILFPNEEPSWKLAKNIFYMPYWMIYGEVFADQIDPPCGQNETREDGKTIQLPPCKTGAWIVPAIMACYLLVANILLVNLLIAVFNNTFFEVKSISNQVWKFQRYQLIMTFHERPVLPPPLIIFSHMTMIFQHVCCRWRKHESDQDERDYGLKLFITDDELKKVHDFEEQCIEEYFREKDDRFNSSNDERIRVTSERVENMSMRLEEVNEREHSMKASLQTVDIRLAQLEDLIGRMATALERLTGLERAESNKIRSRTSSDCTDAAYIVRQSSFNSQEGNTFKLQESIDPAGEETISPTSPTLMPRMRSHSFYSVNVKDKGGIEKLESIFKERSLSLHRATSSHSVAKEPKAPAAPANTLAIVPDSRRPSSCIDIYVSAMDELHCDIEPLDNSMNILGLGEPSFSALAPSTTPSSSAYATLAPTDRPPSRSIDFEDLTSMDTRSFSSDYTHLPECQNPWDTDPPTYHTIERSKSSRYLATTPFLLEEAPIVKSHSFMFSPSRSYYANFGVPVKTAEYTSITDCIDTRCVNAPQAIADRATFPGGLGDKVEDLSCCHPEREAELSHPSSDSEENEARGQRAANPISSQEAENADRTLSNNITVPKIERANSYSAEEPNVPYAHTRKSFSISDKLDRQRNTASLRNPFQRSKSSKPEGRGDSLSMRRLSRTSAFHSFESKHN
# Target: mouse TRPM3α2 (mTRPM3) ion channel (Mus musculus, UniProt J9SQF3)
# Assay: TRPM3 ion channel driven Ca2+ uptake, Fluo-4 AM assay, stimulated with pregnenolone sulfate (50 μM)
# Conditions: TRPM3 overexpressing flip-in HEK293 cells, PS 50 μM, 2.4 mM Ca2+
# Description: In order to monitor the inhibition of the mouse TRPM3α2 (mTRPM3) ion channel by the compounds of the invention, a cellular system making use of an mTRPM3alpha2 or hTRPM3 overexpressing cell line (flip-in HEK293) was used. The TRPM3 channel was stimulated/opened with Pregnenolone sulfate (PS) (50 μM) which results in Ca^2+ influx.
# For mTRPM3, the intracellular Ca^2+ was measured with a Calcium responsive dye, Fluor-4 AM ester (Invitrogen). Cells were cultured until a confluence of 80-90%, washed with Versene (Invitrogen) and detached from the surface by a short incubation with 0.05% Trypsin (Invitrogen). The […] was stopped by the addition of complete cell culture medium (DMEM, glutamax, 10% FCS, NEAA, Pen-Strep). Cells were collected and resuspended in Krebs buffer without Calcium at RT.
# Prior the cell seeding (±2000 cells/well into a black, 384 well plate (Greiner)) the diluted compound was added in the assay plate, together with the PS dissolved in Krebs buffer containing Calcium. […] Directly after cell addition the plates were read on an Envision fluorescence reader (Perkin Elmer) by an Excitation of 485 nm and emission at 535 nm.
# Channel inhibition was calculated compared to a non-PS stimulated control versus a condition stimulated with PS (50 μM) with vehicle. The ability of the compounds of the invention to inhibit this activity was determined as: Percentage inhibition=[1−((RFU determined for sample with test compound present−RFU determined for sample with positive control inhibitor) divided by (RFU determined in the presence of vehicle−RFU determined for sample with positive control inhibitor))]*100.
# The activities of the Example compounds cpd 001-091 tested are depicted in the table below. All tested compounds show an activity in the Fluo-4 AM assay. The activity ranges A, B and C refer to IC50 values in the Fluo-4 AM assay as follows: “A”: IC50<1 μM; “B”: 1 μM≤IC50≤20 μM and “C”: IC50>20 μM.
row,SMILES,IC50 [µM]
1,"Cc1nn2ccc(OCc3ccccn3)cc2c1C(=O)NC(CO)C(C(F)(F)F)C(F)(F)F (single isomer, unassigned) [Cpd 063 - En2]",< 1
2,"Cc1nn2ccc(OCc3ccccn3)cc2c1C(=O)NC(CO)Cc1ccccn1 (single isomer, unassigned) [Cpd 088 - En2]",> 20
3,"Cc1nn2ccc(OCc3ccccn3)cc2c1C(=O)NC1(CO)CCNC1=O (single isomer, unassigned) [Cpd 091 - En2]",> 20
4,"Cc1ncsc1COc1ccn2nc(C)c(C(=O)NC3CNCC(F)(F)C3)c2c1 (single isomer, unassigned) [Cpd 051 - En2]",1 to 20
5,"Cc1nn2ccc(OCc3ccccn3)cc2c1C(=O)NC1CNCC1C(F)(F)F (single isomer, unassigned) [Cpd 082 - En1]",1 to 20
6,"Cc1nn2ccc(OCc3ccccn3)cc2c1C(=O)NC(CO)C1CCOCC1 (single isomer, unassigned)",> 20
7,"COCC(C)(CC(F)F)NC(=O)c1c(C)nn2ccc(OCc3ccccn3)cc12 (single isomer, unassigned)",> 20
8,"Cc1cccc(F)c1COc1ccn2nc(C)c(C(=O)NC(C)(CO)C(N)=O)c2c1 (single isomer, unassigned)",< 1
9,"Cc1nn2ccc(OCc3c(F)cccc3F)cc2c1C(=O)NC(C)(CO)C(N)=O (single isomer, unassigned) [Cpd 032 - En2]",1 to 20
10,"Cc1nn2ccc(OCc3ccccn3)cc2c1C(=O)NCC(O)CC(F)(F)F (single isomer, unassigned) [Cpd 081 - En1]",> 20
11,"Cc1nn2ccc(OCc3ccccn3)cc2c1C(=O)NC(CO)CC(F)F (single isomer, unassigned) [Cpd 064 - En1]",1 to 20
12,"Cc1nn2ccc(OCc3ccccn3)cc2c1C(=O)NC(CO)CC(F)(F)F (single isomer, unassigned) [Cpd 062 - En2]",> 20
13,"Cc1nn2ccc(OCc3ccccn3)cc2c1C(=O)NC(CO)Cc1ccccn1 (single isomer, unassigned) [Cpd 088 - En1]",1 to 20
14,"Cc1nn2ccc(OCc3cccc(F)c3F)cc2c1C(=O)NC(C)(CO)C(N)=O (single isomer, unassigned)",1 to 20
15,"Cc1ncsc1COc1ccn2nc(C)c(C(=O)NC3CNCC(F)(F)C3)c2c1 (single isomer, unassigned) [Cpd 051 - En1]",> 20
16,"Cc1nn2ccc(OCc3ccccn3)cc2c1C(=O)NC(CO)C(F)(F)F (single isomer, unassigned)",1 to 20
17,"Cc1nn2ccc(OCC3CC3)cc2c1C(=O)NC(C)(CO)C(N)=O (single isomer, unassigned) [Cpd 022 - En1]",< 1
18,"Cc1nn2ccc(OCc3ccccn3)cc2c1C(=O)NC(CO)c1ccccn1 (single isomer, unassigned) [Cpd 059 - En2]",1 to 20
19,"Cc1nn2ccc(OCc3ccc(F)cc3F)cc2c1C(=O)NC(C)(CO)C(N)=O (single isomer, unassigned) [Cpd 026 - En1]",< 1
20,"Cc1nn2ccc(OCc3ccccn3)cc2c1C(=O)NC(CO)C(C(F)(F)F)C(F)(F)F (single isomer, unassigned) [Cpd 063 - En1]",> 20
21,"Cc1nn2ccc(OCc3ccccn3)cc2c1C(=O)NC(C)(CO)c1ccn(C)n1 (single isomer, unassigned)",> 20
22,"Cc1nn2ccc(OCc3ccccn3)cc2c1C(=O)NC(CO)c1ccccn1 (single isomer, unassigned) [Cpd 059 - En1]",> 20
23,"Cc1nn2ccc(OCc3ccccn3)cc2c1C(=O)NC(CO)CC(F)F (single isomer, unassigned) [Cpd 064 - En2]",> 20
24,"Cc1nn2ccc(OCc3ccccc3F)cc2c1C(=O)NC(C)(CO)CC(F)F (single isomer, unassigned) [Cpd 025 - En1]",1 to 20

row,SMILES,IC50 [µM]
1,"Cc1nn2ccc(OCc3ccccn3)cc2c1C(=O)NC1CCNC1 (single isomer, unassigned) [Cpd 054 - En1]",> 20
2,"Cc1nn2ccc(OCc3ccccn3)cc2c1C(=O)NC1CNCC1C(F)(F)F (single isomer, unassigned) [Cpd 082 - En2]",< 1
3,"Cc1cccc(COc2ccn3nc(C)c(C(=O)NC(C)(CO)C(N)=O)c3c2)c1F (single isomer, unassigned)",< 1
4,"Cc1ccc(COc2ccn3nc(C)c(C(=O)NC(C)(CO)C(N)=O)c3c2)cn1 (single isomer, unassigned) [Cpd 021 - En1]",1 to 20
5,"Cc1nn2ccc(OCc3ccccc3C(F)F)cc2c1C(=O)NC(C)(CO)C(N)=O (single isomer, unassigned) [Cpd 023 - En2]",1 to 20
6,"Cc1nn2ccc(OCc3ccccc3)cc2c1C(=O)NC(C)(CO)C(N)=O (single isomer, unassigned) [Cpd 016 - En2]",1 to 20
7,"Cc1nn2ccc(OCc3ccccn3)cc2c1C(=O)NC(CO)c1ccn(C)n1 (single isomer, unassigned) [Cpd 087 - En1]",> 20
8,"Cc1nn2ccc(OCc3cc(F)ccc3F)cc2c1C(=O)NC(C)(CO)C(N)=O (single isomer, unassigned) [Cpd 030 - En2]",1 to 20
9,"CC(=O)C(C)(CO)NC(=O)c1c(C)nn2ccc(OCc3ccccn3)cc12 (single isomer, unassigned)",1 to 20
10,"Cc1nn2ccc(OCc3ccccn3)cc2c1C(=O)NC(CO)CC(F)(F)F (single isomer, unassigned) [Cpd 062 - En1]",1 to 20
11,"Cc1nn2ccc(OCc3cc(F)ccc3F)cc2c1C(=O)NC(C)(CO)C(N)=O (single isomer, unassigned) [Cpd 030 - En1]",< 1
12,"Cc1nn2ccc(OCC(F)F)cc2c1C(=O)NC(C)(CO)C(N)=O (single isomer, unassigned) [Cpd 015 - En1]",1 to 20
13,"CNC(=O)C(CO)NC(=O)c1c(C)nn2ccc(OCc3ccccc3F)cc12 (single isomer, unassigned) [Cpd 009 - En2]",> 20
14,"Cc1ncsc1COc1ccn2nc(C)c(C(=O)NC3CNCCC3(F)F)c2c1 (single isomer, unassigned) [Cpd 049 - En1]",1 to 20
15,"Cc1nn2ccc(OCc3ccccc3)cc2c1C(=O)NC(C)(CO)C(N)=O (single isomer, unassigned) [Cpd 016 - En1]",< 1
16,"Cc1ncsc1COc1ccn2nc(C)c(C(=O)NC(C)(CO)CC(F)F)c2c1 (single isomer, unassigned) [Cpd 037 - En2]",< 1
17,"Cc1nn2ccc(OCC3CC3)cc2c1C(=O)NC(C)(CO)C(N)=O (single isomer, unassigned) [Cpd 022 - En2]",> 20
18,"CNC(=O)C(CO)NC(=O)c1c(C)nn2ccc(OCc3ccccc3F)cc12 (single isomer, unassigned) [Cpd 009 - En1]",1 to 20
19,"Cc1nn2ccc(OCC(F)F)cc2c1C(=O)NC(C)(CO)C(N)=O (single isomer, unassigned) [Cpd 015 - En2]",> 20
20,"Cc1nn2ccc(OCc3ccccn3)cc2c1C(=O)NC(CCO)c1ccc(F)cc1 (single isomer, unassigned)",> 20
21,"Cc1nn2ccc(OCc3ccccn3)cc2c1C(=O)NC(CO)c1nccn1C1CC1 (single isomer, unassigned)",1 to 20
22,"Cc1nn2ccc(OCc3ccccc3F)cc2c1C(=O)NC(C)(CO)CC(F)F (single isomer, unassigned) [Cpd 025 - En2]",< 1
23,"Cc1ncsc1COc1ccn2nc(C)c(C(=O)NC3CNCCC3(F)F)c2c1 (single isomer, unassigned) [Cpd 049 - En2]",> 20
